Experimental data from ChEMBL document CHEMBL4613315, “Design of First-in-Class Dual EZH2/HDAC Inhibitor: Biochemical Activity and Biological Evaluation in Cancer Cells” (ACS Med Chem Lett, 2020).

Protein sequences, listed by entry. Tags and fused reporters are not part of them. Lines headed by an entry give the natural chain unless they say otherwise; changes in a name come on top.
UniProt Q15910, whole entry, looked up: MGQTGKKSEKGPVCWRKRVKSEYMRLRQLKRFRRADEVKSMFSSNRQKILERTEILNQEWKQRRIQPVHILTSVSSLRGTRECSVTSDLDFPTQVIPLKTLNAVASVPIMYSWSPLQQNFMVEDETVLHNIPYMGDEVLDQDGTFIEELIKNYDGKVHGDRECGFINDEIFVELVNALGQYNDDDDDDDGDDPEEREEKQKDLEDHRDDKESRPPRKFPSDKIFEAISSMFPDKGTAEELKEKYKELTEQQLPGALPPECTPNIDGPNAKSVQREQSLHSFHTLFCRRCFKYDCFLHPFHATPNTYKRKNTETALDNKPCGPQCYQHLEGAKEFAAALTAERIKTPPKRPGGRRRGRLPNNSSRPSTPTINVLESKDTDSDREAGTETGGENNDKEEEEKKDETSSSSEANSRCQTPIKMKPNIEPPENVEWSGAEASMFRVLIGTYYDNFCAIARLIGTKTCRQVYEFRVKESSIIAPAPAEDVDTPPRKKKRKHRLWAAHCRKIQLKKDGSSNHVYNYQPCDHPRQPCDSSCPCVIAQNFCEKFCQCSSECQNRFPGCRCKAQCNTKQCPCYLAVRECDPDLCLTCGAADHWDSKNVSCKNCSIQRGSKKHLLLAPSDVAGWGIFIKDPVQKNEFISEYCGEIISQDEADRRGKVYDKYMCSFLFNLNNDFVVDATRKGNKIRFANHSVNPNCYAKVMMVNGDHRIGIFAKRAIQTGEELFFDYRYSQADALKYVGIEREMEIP
UniProt Q13547: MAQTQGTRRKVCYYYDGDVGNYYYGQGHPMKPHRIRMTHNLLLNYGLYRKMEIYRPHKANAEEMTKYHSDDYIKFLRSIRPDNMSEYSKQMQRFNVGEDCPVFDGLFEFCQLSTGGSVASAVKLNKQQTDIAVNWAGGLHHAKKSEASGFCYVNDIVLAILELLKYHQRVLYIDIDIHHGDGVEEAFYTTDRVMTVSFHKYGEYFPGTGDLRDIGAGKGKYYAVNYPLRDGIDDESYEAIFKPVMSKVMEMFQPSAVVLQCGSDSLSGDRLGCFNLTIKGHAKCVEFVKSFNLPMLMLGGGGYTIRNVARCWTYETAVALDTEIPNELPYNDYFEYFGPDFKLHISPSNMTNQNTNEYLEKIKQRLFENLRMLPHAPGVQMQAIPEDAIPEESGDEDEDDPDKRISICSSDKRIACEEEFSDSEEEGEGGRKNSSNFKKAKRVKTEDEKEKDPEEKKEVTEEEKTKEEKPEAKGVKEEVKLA
UniProt O15379: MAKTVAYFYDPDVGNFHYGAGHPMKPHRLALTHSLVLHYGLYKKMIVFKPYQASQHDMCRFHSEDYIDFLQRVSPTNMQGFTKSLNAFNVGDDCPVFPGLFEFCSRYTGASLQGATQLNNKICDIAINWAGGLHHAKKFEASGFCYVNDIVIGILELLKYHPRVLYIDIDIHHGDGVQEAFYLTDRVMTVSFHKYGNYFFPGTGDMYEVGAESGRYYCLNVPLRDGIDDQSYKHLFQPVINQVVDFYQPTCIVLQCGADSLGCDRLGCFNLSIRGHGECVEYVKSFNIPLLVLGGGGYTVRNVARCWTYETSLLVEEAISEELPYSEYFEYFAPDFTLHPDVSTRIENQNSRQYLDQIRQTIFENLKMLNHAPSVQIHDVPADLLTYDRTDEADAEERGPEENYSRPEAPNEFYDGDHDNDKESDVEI
UniProt Q92769: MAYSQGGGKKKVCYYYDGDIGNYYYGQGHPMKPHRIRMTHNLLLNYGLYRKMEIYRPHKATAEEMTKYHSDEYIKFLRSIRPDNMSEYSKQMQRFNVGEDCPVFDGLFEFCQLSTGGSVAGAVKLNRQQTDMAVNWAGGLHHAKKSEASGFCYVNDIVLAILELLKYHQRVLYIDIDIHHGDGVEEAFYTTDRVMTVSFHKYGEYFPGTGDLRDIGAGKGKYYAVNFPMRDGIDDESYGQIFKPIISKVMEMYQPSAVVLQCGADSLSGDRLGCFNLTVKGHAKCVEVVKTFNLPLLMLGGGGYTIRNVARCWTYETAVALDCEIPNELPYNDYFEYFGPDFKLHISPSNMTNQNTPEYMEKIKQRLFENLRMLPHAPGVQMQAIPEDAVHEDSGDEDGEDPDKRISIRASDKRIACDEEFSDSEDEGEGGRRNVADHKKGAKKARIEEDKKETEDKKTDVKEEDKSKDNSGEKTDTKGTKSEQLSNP
UniProt Q9UQL6: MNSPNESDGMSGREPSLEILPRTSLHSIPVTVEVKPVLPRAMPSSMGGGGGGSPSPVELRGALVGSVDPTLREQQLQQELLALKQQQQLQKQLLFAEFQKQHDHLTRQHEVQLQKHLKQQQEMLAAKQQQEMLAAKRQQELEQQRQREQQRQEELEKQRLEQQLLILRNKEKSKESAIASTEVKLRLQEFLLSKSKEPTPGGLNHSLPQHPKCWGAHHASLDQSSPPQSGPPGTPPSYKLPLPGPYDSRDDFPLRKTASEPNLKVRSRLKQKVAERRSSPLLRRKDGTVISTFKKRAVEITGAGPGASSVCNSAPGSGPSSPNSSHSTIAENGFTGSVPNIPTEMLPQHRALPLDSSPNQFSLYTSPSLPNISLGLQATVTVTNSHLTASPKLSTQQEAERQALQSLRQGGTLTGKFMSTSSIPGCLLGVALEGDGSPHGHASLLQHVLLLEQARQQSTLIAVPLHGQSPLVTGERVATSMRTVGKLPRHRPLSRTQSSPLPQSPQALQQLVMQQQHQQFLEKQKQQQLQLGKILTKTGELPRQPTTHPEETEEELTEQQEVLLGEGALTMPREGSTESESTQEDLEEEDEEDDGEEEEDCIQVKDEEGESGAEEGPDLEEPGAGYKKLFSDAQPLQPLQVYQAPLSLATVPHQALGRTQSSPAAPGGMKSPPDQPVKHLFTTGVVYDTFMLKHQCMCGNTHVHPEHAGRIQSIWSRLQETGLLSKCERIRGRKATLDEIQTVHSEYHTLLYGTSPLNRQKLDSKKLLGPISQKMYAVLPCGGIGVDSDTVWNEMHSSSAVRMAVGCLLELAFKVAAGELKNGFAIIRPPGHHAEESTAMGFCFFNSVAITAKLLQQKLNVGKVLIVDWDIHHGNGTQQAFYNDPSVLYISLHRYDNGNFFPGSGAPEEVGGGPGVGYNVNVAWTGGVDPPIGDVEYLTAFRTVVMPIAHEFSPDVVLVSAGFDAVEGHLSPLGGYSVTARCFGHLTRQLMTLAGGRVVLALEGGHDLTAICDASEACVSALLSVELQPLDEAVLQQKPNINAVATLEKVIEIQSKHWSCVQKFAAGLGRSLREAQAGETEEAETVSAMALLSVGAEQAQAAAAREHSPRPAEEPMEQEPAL
UniProt Q9BY41: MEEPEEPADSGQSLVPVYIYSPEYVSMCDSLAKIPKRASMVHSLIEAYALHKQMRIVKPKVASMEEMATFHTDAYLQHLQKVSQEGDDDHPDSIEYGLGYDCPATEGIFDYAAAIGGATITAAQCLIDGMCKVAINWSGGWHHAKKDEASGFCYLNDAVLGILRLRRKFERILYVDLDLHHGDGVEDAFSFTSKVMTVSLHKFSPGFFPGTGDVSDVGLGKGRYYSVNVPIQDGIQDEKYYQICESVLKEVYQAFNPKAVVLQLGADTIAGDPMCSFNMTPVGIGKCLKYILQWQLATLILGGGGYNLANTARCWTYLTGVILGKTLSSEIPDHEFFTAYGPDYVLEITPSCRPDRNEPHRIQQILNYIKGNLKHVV
UniProt Q96DB2: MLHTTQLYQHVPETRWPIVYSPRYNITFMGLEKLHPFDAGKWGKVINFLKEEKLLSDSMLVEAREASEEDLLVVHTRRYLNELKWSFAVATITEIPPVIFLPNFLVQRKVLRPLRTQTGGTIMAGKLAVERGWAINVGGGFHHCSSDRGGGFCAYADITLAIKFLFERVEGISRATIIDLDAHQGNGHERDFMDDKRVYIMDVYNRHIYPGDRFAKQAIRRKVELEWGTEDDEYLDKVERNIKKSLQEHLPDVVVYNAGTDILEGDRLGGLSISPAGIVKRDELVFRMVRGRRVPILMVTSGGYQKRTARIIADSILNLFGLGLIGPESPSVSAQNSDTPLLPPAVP
UniProt Q9UKV0: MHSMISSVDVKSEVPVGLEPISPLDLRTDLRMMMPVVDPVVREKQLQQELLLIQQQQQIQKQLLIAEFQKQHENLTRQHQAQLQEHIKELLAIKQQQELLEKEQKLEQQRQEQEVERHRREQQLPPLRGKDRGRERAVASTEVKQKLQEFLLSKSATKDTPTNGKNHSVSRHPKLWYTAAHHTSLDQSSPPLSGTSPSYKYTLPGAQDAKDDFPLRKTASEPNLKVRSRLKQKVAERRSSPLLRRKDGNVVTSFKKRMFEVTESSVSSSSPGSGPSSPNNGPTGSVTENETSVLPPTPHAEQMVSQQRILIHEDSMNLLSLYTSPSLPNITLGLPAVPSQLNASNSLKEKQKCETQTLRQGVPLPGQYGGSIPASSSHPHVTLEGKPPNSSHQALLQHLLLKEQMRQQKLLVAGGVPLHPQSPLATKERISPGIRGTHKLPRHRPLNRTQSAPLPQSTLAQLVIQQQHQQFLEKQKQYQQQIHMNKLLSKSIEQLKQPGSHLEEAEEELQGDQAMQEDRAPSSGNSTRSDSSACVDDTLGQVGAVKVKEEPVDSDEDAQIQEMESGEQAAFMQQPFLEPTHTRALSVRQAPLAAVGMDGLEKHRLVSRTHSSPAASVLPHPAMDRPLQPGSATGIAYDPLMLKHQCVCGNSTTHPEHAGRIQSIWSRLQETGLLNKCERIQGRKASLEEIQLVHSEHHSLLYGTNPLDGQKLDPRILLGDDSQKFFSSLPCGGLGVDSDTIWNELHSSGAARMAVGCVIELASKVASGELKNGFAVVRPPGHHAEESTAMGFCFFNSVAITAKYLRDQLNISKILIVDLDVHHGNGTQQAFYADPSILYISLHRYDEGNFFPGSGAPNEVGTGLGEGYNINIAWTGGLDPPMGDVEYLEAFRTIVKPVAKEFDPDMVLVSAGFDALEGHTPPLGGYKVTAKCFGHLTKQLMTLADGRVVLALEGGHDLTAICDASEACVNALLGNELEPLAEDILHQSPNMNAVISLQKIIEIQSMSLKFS
UniProt Q969S8: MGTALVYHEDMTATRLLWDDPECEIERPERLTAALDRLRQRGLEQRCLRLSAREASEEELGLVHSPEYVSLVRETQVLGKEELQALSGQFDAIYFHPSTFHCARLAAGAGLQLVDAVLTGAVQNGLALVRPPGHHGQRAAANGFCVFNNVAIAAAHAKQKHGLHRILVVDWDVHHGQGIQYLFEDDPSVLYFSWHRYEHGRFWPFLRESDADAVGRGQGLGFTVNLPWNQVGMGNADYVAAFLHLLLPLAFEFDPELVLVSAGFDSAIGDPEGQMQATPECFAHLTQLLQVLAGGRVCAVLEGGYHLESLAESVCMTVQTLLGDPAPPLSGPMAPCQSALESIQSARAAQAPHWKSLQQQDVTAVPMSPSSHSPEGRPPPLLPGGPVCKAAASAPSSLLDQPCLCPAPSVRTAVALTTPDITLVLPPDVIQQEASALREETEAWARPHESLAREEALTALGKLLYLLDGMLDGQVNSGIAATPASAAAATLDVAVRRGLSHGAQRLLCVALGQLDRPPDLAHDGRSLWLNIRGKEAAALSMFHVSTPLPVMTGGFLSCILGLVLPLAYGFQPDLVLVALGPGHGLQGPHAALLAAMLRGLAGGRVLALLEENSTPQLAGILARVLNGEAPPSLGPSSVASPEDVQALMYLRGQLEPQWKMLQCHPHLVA

What was measured:
Assay type in all cases: cell-based
[1] = target: T1, Histone-lysine N-methyltransferase EZH2 (Homo sapiens, UniProt Q15910); assay: Inhibition of EZH2 in human RH4 cells assessed as H3K27me3 level at 28 uM incubated for 96 hrs by Western blot analysis
[2] = target: T1, Histone-lysine N-methyltransferase EZH2; assay: Inhibition of EZH2 in human RH4 cells assessed as H3K27me3 level at 28 uM incubated for 72 hrs by Western blot analysis
[3] = target: T2, Histone deacetylase (Homo sapiens) (UniProt Q13547+O15379+Q9UBN7+Q92769+Q9UQL6+Q8WUI4+Q9BY41+Q96DB2+P56524+Q9UKV0+Q969S8); assay: Inhibition of HDAC in human U937 cells assessed as Ac-H3 level at 10 uM incubated for 72 hrs by Western blot analysis; conditions: U-937
[4] = target: T3, Protein deacetylase HDAC6 (Homo sapiens) (UniProt Q9UBN7); assay: Inhibition of HDAC6 in human U937 cells assessed as acetylated alpha-tubulin level at 50 uM incubated for 72 hrs by Western blot analysis; conditions: U-937
T3 sequence (whole entry): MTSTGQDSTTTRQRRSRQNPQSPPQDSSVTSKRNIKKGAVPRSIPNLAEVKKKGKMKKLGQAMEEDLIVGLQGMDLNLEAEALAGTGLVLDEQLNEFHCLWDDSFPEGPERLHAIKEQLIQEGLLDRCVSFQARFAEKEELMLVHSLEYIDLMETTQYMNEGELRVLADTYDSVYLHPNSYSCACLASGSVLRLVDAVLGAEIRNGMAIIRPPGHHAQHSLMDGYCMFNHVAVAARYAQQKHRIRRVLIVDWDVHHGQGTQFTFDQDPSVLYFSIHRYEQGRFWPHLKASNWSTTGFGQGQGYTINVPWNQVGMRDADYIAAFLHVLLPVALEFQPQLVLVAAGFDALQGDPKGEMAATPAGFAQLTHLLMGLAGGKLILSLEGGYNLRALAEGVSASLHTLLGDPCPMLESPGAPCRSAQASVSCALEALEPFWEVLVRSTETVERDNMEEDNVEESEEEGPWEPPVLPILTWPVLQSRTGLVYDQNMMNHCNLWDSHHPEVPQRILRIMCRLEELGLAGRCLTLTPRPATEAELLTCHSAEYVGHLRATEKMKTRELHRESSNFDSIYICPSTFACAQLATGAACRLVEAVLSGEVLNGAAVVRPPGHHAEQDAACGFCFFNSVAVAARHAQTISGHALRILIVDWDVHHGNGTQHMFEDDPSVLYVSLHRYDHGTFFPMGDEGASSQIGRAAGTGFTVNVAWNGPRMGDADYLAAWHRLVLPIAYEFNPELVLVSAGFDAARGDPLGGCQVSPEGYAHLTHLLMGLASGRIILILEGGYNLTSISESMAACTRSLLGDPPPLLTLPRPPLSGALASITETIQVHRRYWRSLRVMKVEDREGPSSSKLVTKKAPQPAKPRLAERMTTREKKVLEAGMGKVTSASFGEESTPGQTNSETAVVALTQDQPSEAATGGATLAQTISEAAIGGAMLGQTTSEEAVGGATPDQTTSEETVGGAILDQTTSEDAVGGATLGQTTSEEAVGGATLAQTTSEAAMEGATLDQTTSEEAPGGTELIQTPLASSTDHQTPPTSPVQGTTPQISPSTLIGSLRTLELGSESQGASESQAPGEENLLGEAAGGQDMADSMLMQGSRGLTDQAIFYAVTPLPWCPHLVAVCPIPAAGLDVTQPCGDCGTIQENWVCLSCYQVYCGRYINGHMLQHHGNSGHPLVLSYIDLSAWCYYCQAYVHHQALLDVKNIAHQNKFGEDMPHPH

[5] = target: T1, Histone-lysine N-methyltransferase EZH2; assay: Inhibition of EZH2 in human U937 cells assessed as H3K27me3 level at 50 uM incubated for 144 hrs by Western blot analysis; conditions: U-937
[6] = target: T1, Histone-lysine N-methyltransferase EZH2; assay: Inhibition of EZH2 in human U937 cells assessed as H3K27me3 level at 5 uM incubated for 72 hrs by Western blot analysis; conditions: U-937
[7] = target: T1, Histone-lysine N-methyltransferase EZH2; assay: Inhibition of EZH2 in human RH4 cells assessed as H3K27me3 level at 14 uM incubated for 96 hrs by Western blot analysis
[8] = target: T1, Histone-lysine N-methyltransferase EZH2; assay: Inhibition of EZH2 in human U937 cells assessed as H3K27me3 level at 10 uM incubated for 48 hrs by Western blot analysis; conditions: U-937
[9] = target: T3, Protein deacetylase HDAC6 (Homo sapiens); assay: Inhibition of HDAC6 in human U937 cells assessed as acetylated alpha-tubulin level at 50 uM incubated for 144 hrs by Western blot analysis; conditions: U-937
[10] = target: T3, Protein deacetylase HDAC6 (Homo sapiens); assay: Inhibition of HDAC6 in human RH4 cells assessed as acetylated alpha-tubulin level at 14 uM incubated for 72 hrs by Western blot analysis
[11] = target: T2, Histone deacetylase (Homo sapiens); assay: Inhibition of HDAC in human U937 cells assessed as Ac-H3 level at 5 uM incubated for 96 hrs by Western blot analysis; conditions: U-937
[12] = target: T3, Protein deacetylase HDAC6 (Homo sapiens); assay: Inhibition of HDAC6 in human RH4 cells assessed as acetylated alpha-tubulin level at 28 uM incubated for 72 hrs by Western blot analysis
[13] = target: T3, Protein deacetylase HDAC6 (Homo sapiens); assay: Inhibition of HDAC6 in human U937 cells assessed as acetylated alpha-tubulin level at 10 uM incubated for 72 hrs by Western blot analysis; conditions: U-937
[14] = target: T1, Histone-lysine N-methyltransferase EZH2; assay: Inhibition of EZH2 in human U937 cells assessed as H3K27me3 level at 50 uM incubated for 72 hrs by Western blot analysis; conditions: U-937
[15] = target: T3, Protein deacetylase HDAC6 (Homo sapiens); assay: Inhibition of HDAC6 in human RH4 cells assessed as acetylated alpha-tubulin level at 28 uM incubated for 96 hrs by Western blot analysis
[16] = target: T1, Histone-lysine N-methyltransferase EZH2; assay: Inhibition of EZH2 in human U937 cells assessed as H3K27me3 level at 10 uM incubated for 96 hrs by Western blot analysis; conditions: U-937
[17] = target: T2, Histone deacetylase (Homo sapiens); assay: Inhibition of HDAC in human U937 cells assessed as Ac-H3 level at 10 uM incubated for 48 hrs by Western blot analysis; conditions: U-937
[18] = target: T2, Histone deacetylase (Homo sapiens); assay: Inhibition of HDAC in human U937 cells assessed as Ac-H3 level at 5 uM incubated for 48 hrs by Western blot analysis; conditions: U-937
[19] = target: T1, Histone-lysine N-methyltransferase EZH2; assay: Inhibition of EZH2 in human U937 cells assessed as H3K27me3 level at 5 uM incubated for 96 hrs by Western blot analysis; conditions: U-937
[20] = target: T3, Protein deacetylase HDAC6 (Homo sapiens); assay: Inhibition of HDAC6 in human RH4 cells assessed as acetylated alpha-tubulin level at 14 uM incubated for 96 hrs by Western blot analysis
[21] = target: T3, Protein deacetylase HDAC6 (Homo sapiens); assay: Inhibition of HDAC6 in human U937 cells assessed as acetylated alpha-tubulin level at 5 uM incubated for 72 hrs by Western blot analysis; conditions: U-937
[22] = target: T3, Protein deacetylase HDAC6 (Homo sapiens); assay: Inhibition of HDAC6 in human U937 cells assessed as acetylated alpha-tubulin level at 50 uM incubated for 96 hrs by Western blot analysis; conditions: U-937
[23] = target: T3, Protein deacetylase HDAC6 (Homo sapiens); assay: Inhibition of HDAC6 in human U937 cells assessed as acetylated alpha-tubulin level at 5 uM incubated for 48 hrs by Western blot analysis; conditions: U-937
[24] = target: T2, Histone deacetylase (Homo sapiens); assay: Inhibition of HDAC in human U937 cells assessed as Ac-H3 level at 10 uM incubated for 96 hrs by Western blot analysis; conditions: U-937
[25] = target: T3, Protein deacetylase HDAC6 (Homo sapiens); assay: Inhibition of HDAC6 in human U937 cells assessed as acetylated alpha-tubulin level at 10 uM incubated for 96 hrs by Western blot analysis; conditions: U-937
[26] = target: T3, Protein deacetylase HDAC6 (Homo sapiens); assay: Inhibition of HDAC6 in human U937 cells assessed as acetylated alpha-tubulin level at 50 uM incubated for 120 hrs by Western blot analysis; conditions: U-937
[27] = target: T2, Histone deacetylase (Homo sapiens); assay: Inhibition of HDAC in human U937 cells assessed as Ac-H3 level at 5 uM incubated for 72 hrs by Western blot analysis; conditions: U-937
[28] = target: T3, Protein deacetylase HDAC6 (Homo sapiens); assay: Inhibition of HDAC6 in human U937 cells assessed as acetylated alpha-tubulin level at 5 uM incubated for 96 hrs by Western blot analysis; conditions: U-937
[29] = target: T1, Histone-lysine N-methyltransferase EZH2; assay: Inhibition of EZH2 in human U937 cells assessed as H3K27me3 level at 10 uM incubated for 72 hrs by Western blot analysis; conditions: U-937
[30] = target: T3, Protein deacetylase HDAC6 (Homo sapiens); assay: Inhibition of HDAC6 in human U937 cells assessed as acetylated alpha-tubulin level at 10 uM incubated for 48 hrs by Western blot analysis; conditions: U-937
[31] = target: T1, Histone-lysine N-methyltransferase EZH2; assay: Inhibition of EZH2 in human U937 cells assessed as H3K27me3 level at 5 uM incubated for 48 hrs by Western blot analysis; conditions: U-937
[32] = target: T1, Histone-lysine N-methyltransferase EZH2; assay: Inhibition of EZH2 in human RH4 cells assessed as H3K27me3 level at 14 uM incubated for 72 hrs by Western blot analysis

Cc1cc(C)c(CNC(=O)c2cc(C)n(-c3cccc(NC(=O)CCCCCCC(=O)NO)c3)c2C)c(=O)[nH]1 gave a fold change (FC) [1] of 0.7, a fold change (FC) [2] of 0.6 and a fold change (FC) [3] of 1.2. The fold change (FC) [4] was 127, the fold change (FC) [5] was 0.4 and the fold change (FC) [6] was 0.9. The fold change (FC) [7] was 0.9, the fold change (FC) [8] was 1.1 and the fold change (FC) [9] was 9.9. The fold change (FC) [10] was 11.2, the fold change (FC) [11] was 0.9 and the fold change (FC) [12] was 15.3. The fold change (FC) [13] was 4.3, the fold change (FC) [14] was 1.3 and the fold change (FC) [15] was 4.3. For the same molecule, the fold change (FC) [16] was 0.8, the fold change (FC) [17] was 1.4 and the fold change (FC) [18] was 1.4. The fold change (FC) [19] was 0.8, the fold change (FC) [20] was 4 and the fold change (FC) [21] was 4.2. It also gave a fold change (FC) [22] of 152, a fold change (FC) [23] of 2.8 and a fold change (FC) [24] of 1. For the same molecule, the fold change (FC) [25] was 4.1, the fold change (FC) [26] was 61.7 and the fold change (FC) [27] was 1.1. For the same molecule, the fold change (FC) [28] was 4.5, the fold change (FC) [29] was 1 and the fold change (FC) [30] was 3.1. For the same molecule, the fold change (FC) [31] was 1 and the fold change (FC) [32] was 0.6.
